For 39 compounds, inhibition results are on record in PubChem BioAssay AID485346 (Sanford-Burnham Center for Chemical Genomics, 2010).

By UniProt entry, the sequences of proteins in these tests, tags left out.
UniProt O15151, whole entry, looked up: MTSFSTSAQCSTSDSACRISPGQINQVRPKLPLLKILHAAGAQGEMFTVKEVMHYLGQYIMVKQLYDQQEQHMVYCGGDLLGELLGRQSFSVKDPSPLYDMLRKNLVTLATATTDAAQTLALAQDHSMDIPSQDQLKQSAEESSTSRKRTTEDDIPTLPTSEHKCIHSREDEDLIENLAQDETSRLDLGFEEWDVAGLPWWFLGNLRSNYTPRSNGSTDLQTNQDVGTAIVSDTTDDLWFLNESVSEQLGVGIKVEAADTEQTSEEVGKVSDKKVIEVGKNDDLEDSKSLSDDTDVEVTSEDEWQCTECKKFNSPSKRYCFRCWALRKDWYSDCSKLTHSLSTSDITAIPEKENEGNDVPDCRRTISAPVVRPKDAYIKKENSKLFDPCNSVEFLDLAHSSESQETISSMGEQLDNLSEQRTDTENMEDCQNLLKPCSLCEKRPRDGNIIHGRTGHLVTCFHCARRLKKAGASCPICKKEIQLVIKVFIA
UniProt Q00987, whole entry, looked up: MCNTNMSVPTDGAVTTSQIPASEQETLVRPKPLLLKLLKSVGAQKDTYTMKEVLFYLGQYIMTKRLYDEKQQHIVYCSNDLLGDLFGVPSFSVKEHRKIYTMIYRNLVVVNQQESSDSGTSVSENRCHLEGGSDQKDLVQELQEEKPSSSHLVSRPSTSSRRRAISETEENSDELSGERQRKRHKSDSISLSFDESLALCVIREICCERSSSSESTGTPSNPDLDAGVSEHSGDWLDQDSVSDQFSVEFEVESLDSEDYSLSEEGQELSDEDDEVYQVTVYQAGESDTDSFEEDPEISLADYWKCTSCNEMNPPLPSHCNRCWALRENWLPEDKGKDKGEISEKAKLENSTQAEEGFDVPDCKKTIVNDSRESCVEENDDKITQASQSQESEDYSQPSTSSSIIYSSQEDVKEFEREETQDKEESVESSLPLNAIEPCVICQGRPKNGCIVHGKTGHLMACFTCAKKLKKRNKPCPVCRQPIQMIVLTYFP

The list shows a part of the results, in another mix than the full data. Active and inactive are the calls of the source.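 The calls were made as follows: active = inhibition of at least 50% at 8 µM in the primary screen; inactive = the rest.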

The experiment has as its target Protein Mdm4 (Homo sapiens) + E3 ubiquitin-protein ligase Mdm2 (Homo sapiens) (UniProt O15151+Q00987). Kind of experiment: disruptors of Mdm2/MdmX RING complex – cell-based, luminescence, split luciferase, SaOS-2, uHTS, primary screen (AID 485346). Conditions: SaOS-2 split-luciferase Mdm2/MdmX complementation, at 8 µM, hits give high values.
For the compound `CC(C)(C)OC(=O)N1CCC(N(C(=O)c2ccccc2)c2ccc(F)cc2)CC1`, the inhibition is inactive: 14.6%. In the case of `COc1ccc(C(=O)NCC2(N3CCCCC3)CCCCC2)c(OC)c1OC`, the inhibition was inactive: 8.47%. As to `O=C(NCC1(N2CCCCC2)CCCCC1)c1ccc(=O)[nH]c1`, the inhibition was inactive: 2.31%. As to `O=C(NCC1(N2CCCCC2)CCCCC1)c1cccs1`, the inhibition was inactive: 13.1%. Consider `CCOC(=O)N1CCC(Nc2cccc(C)c2)CC1`, for which the inhibition is inactive: -14.9%. For `Cc1ccc(OCC(C)C)c(CN(CCCl)CCCl)c1`, the inhibition is inactive: 24.2%. On to `O=C(NCC1(N2CCCCC2)CCCCC1)c1ccc(F)cc1`, for which the inhibition is inactive: 7%.

For `CCCCOc1ccc(C(=O)NCC2(N3CCOCC3)CCCCC2)cc1`, the inhibition was inactive: -12.3%. Turning to `CCOC(=O)N1CCC(Nc2ccc(F)cc2)CC1`, the inhibition was inactive: 3.04%. In the case of `COc1ccc(NC2CCN(CCc3ccccc3)CC2)c(OC)c1` it was inactive: 8.67%; in that of `CCOc1ccc(C)cc1CN(CCCl)CCCl`, inactive: 9.31%; in that of `O=C(NCC1(N2CCCCC2)CCCCC1)c1ccco1`, inactive: -21.3%. Turning to `CN(C)c1ccc(C(=O)NCC2(N3CCCCC3)CCCCC2)cc1`, the inhibition is inactive: 0.132%. `CCN1CCC(Nc2cccc(F)c2)CC1`: the inhibition is inactive: 15.2%. In the case of `Cc1ccc(C(=O)NCC2(N3CCCCC3)CCCCC2)o1` it was inactive: -19.9%; in that of `Fc1ccccc1NC1CCN(Cc2ccccc2)CC1`, inactive: 10.5%; in that of `COc1cc(OC)cc(C(=O)NCC2(N3CCCCC3)CCCCC2)c1`, inactive: -26.3%. For `CN1CCC(Nc2ccc(Cl)cc2)CC1`, the inhibition is inactive: 16.5%. With `CCCOc1ccc(C)cc1CN(CCCl)CCCl`, the inhibition is inactive: 13.9%. As for `COc1cccc(C(=O)N(c2cc(C)cc(C)c2)C2CCN(C(=O)OC(C)(C)C)CC2)c1`, the inhibition was inactive: 13.8%. Turning to `COc1cc(OC)cc(C(=O)NCC2(N3CCOCC3)CCCCC2)c1`, the inhibition is inactive: 13%. Consider `CCC(CO)(C(=O)OC1CN2CCC1CC2)c1ccccc1` (centres undefined), for which the inhibition is inactive: -21.2%. Turning to `CC(C)(C)OC(=O)N1CCC(Nc2ccccc2)CC1`, the inhibition is inactive: -19.4%.

With `O=C(O)C1(Nc2ccccc2)CCN(Cc2ccccc2)CC1`, the inhibition was inactive: 3.9%.

Take `CCCOc1ccc(C(=O)NCC2(N(C)C)CCCCC2)cc1`: the inhibition was inactive: -1.86%. `CCOc1ncccc1C(=O)NCC1(N2CCOCC2)CCCCC1`: the inhibition was inactive: 10.5%. Regarding `CN1CCC(Nc2ccc(F)c(Cl)c2)CC1`, the inhibition is inactive: 19.6%. In the case of `O=C(OC1CN2CCC1CC2)C1c2ccccc2C=Cc2ccccc21` (centres undefined), the inhibition is inactive: 27%.

In the case of `CCc1cc(C(=O)NCC2(N3CCCCC3)CCCCC2)sc1C`, the inhibition is inactive: -16.5%. Turning to `CCOC(=O)N1CCC(Nc2ccc(C)cc2)CC1`, the inhibition is inactive: 22.6%. Regarding `N/C(=N\O)c1c(N)no[n+]1[O-]`, the inhibition was inactive: 16.5%. For the compound `COc1ccc(C(=O)NCC2(N3CCOCC3)CCCCC2)cc1OC`, the inhibition is inactive: -14.8%. `COc1cc(C(=O)NCC2(N3CCOCC3)CCCCC2)cc(OC)c1C`: the inhibition was inactive: 0.45%. As for `O=C(NCC1(N2CCOCC2)CCCCC1)c1cc(Br)ccc1Cl`, the inhibition is inactive: 16.5%. As for `CN(C)C1(CNC(=O)c2cccc(C#N)c2)CCCCC1`, the inhibition is inactive: -22.9%. On to `c1ccc(CN2CCC(Nc3ccccc3)CC2)cc1`, for which the inhibition was inactive: -2.46%. With `CCCN1CCC(Nc2cc(OC)cc(OC)c2)CC1` the figure was inactive: 17%; with `N#Cc1ccc(C(=O)NCC2(N3CCCCC3)CCCCC2)cc1`, inactive: -14.8%; with `CC(C)(C)OC(=O)N1CCC(N(C(=O)c2ccccc2)c2ccc(Cl)cc2)CC1`, inactive: 10.8%.

A word on the inhibition: it is the relative decrease from the control value, in per cent.
